Consider 2 substances from publication PMC8617063 (Nature Communications, 2021).

For one series, the system named is ear vein bleeding. Particulars: pig, in vivo.
Another series relates to tail bleeding. Particulars: rat, in vivo.
The test system of another series is saphenous vein bleeding. Particulars: rat, in vivo.
For series [1] the following is noted: in vivo.

Take DAPT [reference compound]: in the series with ear vein bleeding, the bleeding time was 6.4 ± 3.7 min.

With “unfractionated heparin [UFH, reference compound]”, in the series on tail bleeding, the “Tail bleeding” value came to 27 min and the tail bleeding time entry is recorded as “maximal bleeding”. In the series on tail bleeding (iv), the RT50 for bleeding came out at 235 U/kg. In addition, the “Sephaneous vein bleeding” value in the series on saphenous vein bleeding was 6.472 min. In addition, the bleeding time in the series with ear vein bleeding is recorded as 45 min. Further, the plasma level in series [1] is listed as ~ 0.6 µM.
